The values below are quoted from earlier work in PMC11334105, “Contribution of Noncovalent Recognition and Reactivity to the Optimization of Covalent Inhibitors: A Case Study on KRas^G12C” (ACS Chemical Biology, 2024).

The conditions of the data set: free imidazole and aziridine ref 43; cited from earlier work.

Take aziridine: the pKa of the conjugated acid is 8.
